Test system: endogenous heparanase
Assay: Immunoblot of endogenous heparanase protein in micromass cultures
Assay type: cell-based, mouse
Conditions: 100 ng/ml; day 2 micromass cultures treated 24 or 48 hours; densitometry
Experimental: Micromass cultures were prepared from the mesenchymal cells of E11.5 mouse embryo limb buds (Ahrens et al. (1979) Dev. Biol., 69:436-50). Dissociated cells were suspended at a concentration of 5×10^6 cells/ml in DMEM containing 3% fetal bovine serum and antibiotics. Micromass cultures were initiated by spotting 20 μl of the cell suspensions (1.5×10^5 cells) onto the surface of 24-well tissue culture dishes. After a 90-minute incubation at 37° C. in a humidified CO2 incubator to allow for cell attachment, the cultures were supplied with 0.25 ml of medium. After 24 hours, medium supplemented with the indicated concentrations of Surfen (bis-2-methyl-4-aminoquinolyl-6-carbamide), bacterial heparitinase III (Sigma), recombinant human BMP2 (R&D Systems), recombinant human heparanase, or roneparstat (Sigma-Tau Research S.A.). Fresh reagents (drug and/or protein) were given with medium change every other day. Equivalent amounts of vehicle were added to control cultures. […]
ATDC5 cells were grown to 100% confluence in 6-well plates and treated with indicated concentrations of Surfen, bis-2-methyl-4-amino-quinolyl-6-carbamide. […] The membranes were re-blotted with antibodies to α-tubulin (Sigma T-5168, 1:2000) for normalization, and band intensities were quantified by computer-assisted image analysis.

increase of endogenous heparanase protein levels: about 2 fold
Substance: rhBMP2: recombinant human BMP2 (R&D Systems)

From patent US20180110799A1, “Compositions and Methods for the Inhibition of Chondrogenesis” (The Children's Hospital of Philadelphia, priority 2014, published 2018)
